The text below walks through data of patent US20020019395A1, “Indalone and benzimidazolone inhibitors of factor Xa” (priority 2000, published 2002).

Amino acid sequences for entries named in this document (tags omitted). Residues count along the entry.
UniProt P00742, 235-488 limits assumed: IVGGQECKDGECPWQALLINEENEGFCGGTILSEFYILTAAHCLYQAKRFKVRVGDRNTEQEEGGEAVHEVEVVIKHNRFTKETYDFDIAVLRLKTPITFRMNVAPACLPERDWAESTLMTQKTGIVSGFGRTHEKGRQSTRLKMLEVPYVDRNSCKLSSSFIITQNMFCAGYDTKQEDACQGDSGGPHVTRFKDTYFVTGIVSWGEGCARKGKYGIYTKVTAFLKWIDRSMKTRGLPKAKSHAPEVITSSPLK
UniProt P00742, 41-179 partner limits assumed: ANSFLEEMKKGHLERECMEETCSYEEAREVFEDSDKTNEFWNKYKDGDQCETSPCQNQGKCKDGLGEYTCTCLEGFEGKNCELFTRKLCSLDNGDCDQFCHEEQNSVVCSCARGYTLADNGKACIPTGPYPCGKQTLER
UniProt P00760, 24-246 limits assumed: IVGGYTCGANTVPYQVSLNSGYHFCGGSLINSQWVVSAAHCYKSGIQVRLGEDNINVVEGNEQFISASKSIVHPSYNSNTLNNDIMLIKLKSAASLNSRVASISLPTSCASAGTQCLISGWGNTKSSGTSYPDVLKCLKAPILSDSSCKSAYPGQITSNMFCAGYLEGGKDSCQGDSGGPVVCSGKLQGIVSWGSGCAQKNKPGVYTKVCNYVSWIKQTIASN
UniProt P00747, 581-810 limits assumed: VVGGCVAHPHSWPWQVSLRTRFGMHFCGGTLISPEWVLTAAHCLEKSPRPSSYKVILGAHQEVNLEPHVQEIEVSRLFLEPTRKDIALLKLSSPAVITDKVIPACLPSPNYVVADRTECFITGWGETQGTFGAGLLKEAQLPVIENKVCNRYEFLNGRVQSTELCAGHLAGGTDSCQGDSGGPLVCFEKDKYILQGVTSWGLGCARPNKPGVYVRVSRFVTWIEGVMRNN
UniProt P00747, 97-580 partner limits assumed: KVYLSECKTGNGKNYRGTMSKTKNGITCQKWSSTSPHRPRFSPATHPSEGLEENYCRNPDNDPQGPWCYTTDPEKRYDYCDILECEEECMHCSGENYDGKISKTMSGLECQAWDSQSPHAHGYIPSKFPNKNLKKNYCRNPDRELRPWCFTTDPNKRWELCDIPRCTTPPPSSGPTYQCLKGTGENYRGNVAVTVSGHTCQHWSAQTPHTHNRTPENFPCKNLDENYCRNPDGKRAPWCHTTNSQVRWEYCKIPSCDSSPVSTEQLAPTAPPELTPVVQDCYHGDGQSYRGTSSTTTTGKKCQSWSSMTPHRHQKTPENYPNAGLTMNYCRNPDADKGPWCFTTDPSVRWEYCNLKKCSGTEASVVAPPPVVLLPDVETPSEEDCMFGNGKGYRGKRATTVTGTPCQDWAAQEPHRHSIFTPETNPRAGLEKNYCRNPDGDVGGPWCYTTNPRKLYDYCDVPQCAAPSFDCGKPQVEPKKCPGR
UniProt P00750, 36-562 limits assumed: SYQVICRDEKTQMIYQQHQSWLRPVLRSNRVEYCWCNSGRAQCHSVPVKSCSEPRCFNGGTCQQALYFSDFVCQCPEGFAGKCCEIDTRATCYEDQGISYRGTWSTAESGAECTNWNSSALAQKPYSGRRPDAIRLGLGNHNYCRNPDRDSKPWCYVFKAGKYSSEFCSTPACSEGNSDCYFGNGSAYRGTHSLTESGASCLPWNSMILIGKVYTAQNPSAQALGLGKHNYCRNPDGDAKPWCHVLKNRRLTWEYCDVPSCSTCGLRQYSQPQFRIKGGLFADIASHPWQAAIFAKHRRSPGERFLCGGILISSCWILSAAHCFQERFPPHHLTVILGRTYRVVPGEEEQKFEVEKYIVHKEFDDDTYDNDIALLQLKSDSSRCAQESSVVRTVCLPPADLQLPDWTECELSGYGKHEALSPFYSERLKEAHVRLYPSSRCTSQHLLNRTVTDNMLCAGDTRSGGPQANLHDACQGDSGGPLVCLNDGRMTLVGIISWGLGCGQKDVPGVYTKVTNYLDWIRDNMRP
UniProt P04070, 212-450 limits assumed: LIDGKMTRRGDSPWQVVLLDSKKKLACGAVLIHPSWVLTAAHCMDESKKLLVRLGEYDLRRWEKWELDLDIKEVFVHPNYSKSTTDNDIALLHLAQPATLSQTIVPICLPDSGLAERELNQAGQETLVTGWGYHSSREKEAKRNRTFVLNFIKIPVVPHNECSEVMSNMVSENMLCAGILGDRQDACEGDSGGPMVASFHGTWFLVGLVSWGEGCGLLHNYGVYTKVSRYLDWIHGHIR
UniProt P04070, 43-197 partner limits assumed: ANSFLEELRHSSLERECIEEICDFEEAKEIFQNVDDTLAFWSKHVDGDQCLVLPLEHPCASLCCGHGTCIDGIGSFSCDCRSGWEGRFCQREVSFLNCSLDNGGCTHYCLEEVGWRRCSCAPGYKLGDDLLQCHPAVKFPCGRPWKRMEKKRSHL
UniProt P12259, 29-737 partner limits assumed: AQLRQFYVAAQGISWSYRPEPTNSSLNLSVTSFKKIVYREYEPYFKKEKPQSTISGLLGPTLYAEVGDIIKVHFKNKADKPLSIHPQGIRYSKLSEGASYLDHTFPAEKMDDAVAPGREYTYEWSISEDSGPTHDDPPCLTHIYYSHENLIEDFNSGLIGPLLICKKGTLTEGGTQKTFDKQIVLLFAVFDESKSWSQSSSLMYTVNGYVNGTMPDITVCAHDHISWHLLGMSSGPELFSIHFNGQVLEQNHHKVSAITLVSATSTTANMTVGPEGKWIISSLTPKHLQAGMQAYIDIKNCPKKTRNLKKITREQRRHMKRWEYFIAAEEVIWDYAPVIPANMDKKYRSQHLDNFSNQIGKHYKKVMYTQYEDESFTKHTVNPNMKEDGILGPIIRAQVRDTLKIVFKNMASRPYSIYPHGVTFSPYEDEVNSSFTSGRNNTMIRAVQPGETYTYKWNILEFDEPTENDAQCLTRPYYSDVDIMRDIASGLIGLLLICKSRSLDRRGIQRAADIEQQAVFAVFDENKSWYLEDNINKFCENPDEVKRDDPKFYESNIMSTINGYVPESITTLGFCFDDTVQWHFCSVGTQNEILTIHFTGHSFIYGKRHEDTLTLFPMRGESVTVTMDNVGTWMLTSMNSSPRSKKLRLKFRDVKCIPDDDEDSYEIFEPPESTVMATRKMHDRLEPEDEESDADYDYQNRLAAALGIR
UniProt P12259, 1574-2224 partner limits assumed: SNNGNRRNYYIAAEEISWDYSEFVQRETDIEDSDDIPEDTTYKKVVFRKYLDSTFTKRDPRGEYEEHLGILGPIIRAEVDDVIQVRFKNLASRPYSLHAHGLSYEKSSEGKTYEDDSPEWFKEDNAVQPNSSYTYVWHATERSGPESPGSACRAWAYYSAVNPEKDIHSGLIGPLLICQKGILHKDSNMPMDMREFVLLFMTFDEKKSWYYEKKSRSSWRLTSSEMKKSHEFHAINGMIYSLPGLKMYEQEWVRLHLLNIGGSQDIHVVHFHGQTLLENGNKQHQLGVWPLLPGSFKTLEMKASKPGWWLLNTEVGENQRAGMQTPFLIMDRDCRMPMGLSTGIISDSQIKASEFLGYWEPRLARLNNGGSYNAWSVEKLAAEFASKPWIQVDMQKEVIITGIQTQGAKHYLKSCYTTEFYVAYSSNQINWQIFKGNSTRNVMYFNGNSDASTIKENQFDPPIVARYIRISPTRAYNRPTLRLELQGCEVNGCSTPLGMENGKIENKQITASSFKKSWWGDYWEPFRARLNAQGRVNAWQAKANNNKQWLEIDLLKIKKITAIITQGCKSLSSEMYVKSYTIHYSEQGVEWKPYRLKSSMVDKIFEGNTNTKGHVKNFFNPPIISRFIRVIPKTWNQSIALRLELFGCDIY

One test addresses factor Xa (Homo sapiens, UniProt P00742). The test is described as follows: factor Xa amidolytic assay (XA). To be noted: read-out: XA IC50; substrate S-2765, pH 7.5, room temperature. On the procedure: (§1) The compounds of the present invention are dissolved in buffer to give solutions containing concentrations such that assay concentrations range from about 0 to about 100 μM. In the assays for thrombin, prothrombinase and factor Xa, a synthetic chromogenic substrate is added to a solution containing test compound and the enzyme of interest and the residual catalytic activity of that enzyme is determined spectrophotometrically. The IC50 of a compound is determined from the substrate turnover. The IC50 is the concentration of test compound giving about 50% inhibition of the substrate turnover.
(§2) The factor Xa and thrombin assays were performed at room temperature, in 0.02 M Tris.HCl buffer, pH 7.5, containing 0.15 M NaCl. The rates of hydrolysis of the para-nitroanilide substrate S-2765 (Chromogenix) for factor Xa, and the substrate Chromozym TH (Boehringer Mannheim) for thrombin following preincubation of the enzyme with inhibitor for 5 minutes at room temperature, and were determined using the Softmax 96-well plate reader (Molecular Devices), monitored at 405 nm to measure the time dependent appearance of p-nitroaniline.

The target in another test is TRYPSIN (Bos taurus, UniProt P00760). The test is described as follows: trypsin protease inhibition assay. Type of test: biochemical. To be noted: read-out: TRYPSIN IC50.
The next test addresses thrombin (Homo sapiens, UniProt P00734). The test is described as follows: thrombin amidolytic assay (IIA). The following applies: read-out: IIA IC50; substrate Chromozym TH, pH 7.5, room temperature. On the procedure: as §1, §2
Another test concerns the target PLASMIN (Homo sapiens, UniProt P00747). The test is described as follows: plasmin protease inhibition assay. The format is biochemical. The following applies: read-out: PLASMIN IC50.
The target in another test is TPA (Homo sapiens, UniProt P00750). Description: TPA protease inhibition assay. The following applies: read-out: TPA IC50. The format is biochemical.
The next test addresses prothrombinase complex (Homo sapiens, UniProt P00742). Description: prothrombinase inhibition assay (IIASE), plasma free system. To be noted: read-out: IIASE IC50; factor Xa 0.5 nM, factor Va 2 nM, phospholipid, Chromozym TH. On the procedure: as §1
The prothrombinase inhibition assay was performed in a plasma free system with modifications to the method described by Sinha, U. et al., Thromb. Res., 75, 427-436 (1994). Specifically, the activity of the prothrombinase complex was determined by measuring the time course of thrombin generation using the p-nitroanilide substrate Chromozym TH. The assay consists of preincubation (5 minutes) of selected compounds to be tested as inhibitors with the complex formed from factor Xa (0.5 nM), factor Va (2 nM), phosphatidyl serine:phosphatidyl choline (25:75, 20 μM) in 20 mM Tris.HCl buffer, pH 7.5, containing 0.15 M NaCl, 5 mM CaCl2 and 0.1% bovine serum albumin. […] The rate of substrate cleavage was monitored at 405 nm for two minutes. […]

For the next test, the system named is KALLIKREIN
Description: kallikrein protease inhibition assay. Type of test: biochemical. The following applies: read-out: KALLIKREIN IC50.

In another test the target is APC (Homo sapiens, UniProt P04070). The test is described as follows: APC protease inhibition assay. The format is biochemical. The following applies: read-out: APC IC50.

On to `CCn1c(Cn2c(=O)[nH]c3ccc(OC4CCN(C(C)=N)CC4)cc32)cc2ccc(C(N)=NO)cc21`, for which the values for the IC50 on factor Xa, at TRYPSIN and at thrombin were 107 nM, 3450 nM and 359000 nM, respectively.

As for `CCn1c(Cn2c(=O)[nH]c3ccc(OC4CCN(C(C)=N)CC4)cc32)cc2ccc(C(=N)N)cc21` [Example 17], the IC50 on PLASMIN was 475 nM; on TPA it was 3250 nM; at factor Xa, 3.57 nM; on prothrombinase complex, 2.49 nM; at TRYPSIN, 56 nM; in the test with KALLIKREIN, 241 nM. In addition, the IC50 at thrombin came out at 12000 nM; on APC, 1090 nM.

In the case of `CCn1c(Cn2c(=O)[nH]c3ccc(OC4CCN(C(=N)N)CC4)cc32)cc2ccc(C(=N)N)cc21` [Example 18], the IC50 on PLASMIN was found to be 246 nM; at TPA, 1640 nM; on factor Xa, 3.83 nM; at prothrombinase complex it was 3.13 nM; at TRYPSIN, 63.7 nM; in the test with KALLIKREIN, 135 nM. The results for the IC50 at thrombin and at APC were 1500 nM and 794 nM, respectively.

In general, IC50 refers to the midpoint of a concentration-inhibition curve.
